Assay results from PubChem BioAssay AID1458 (National Center for Advancing Translational Sciences (NCATS), 2008).
Values joined by “and” are separate entries in the source; they are usually repeats but may differ in a detail not shown here. Equal values may be shown once. Shown are results outside the selection of hits, which stands elsewhere. Results filed as inconclusive are left out. Active and inactive are the calls of the source. Calls follow the shape of the dose curve; as a rule, active = well fitted activation curve with a large enough effect; inconclusive = small, poorly fitted or top-dose-only effect; inactive = no such curve, though single readings can be large or run the other way.

Assay: qHTS Assay for Enhancers of SMN2 Splice Variant Expression; also: % of control where 0% means no effect; nearly all actives have a fitted effect of over 55% in size
Conditions: HEK293 SMN2-luciferase splicing reporter, luminescence, 30-36 h

COC(=O)C1=C(C)NC(C)=C(C(=O)OCCCN2CCC(c3ccccc3)(c3ccccc3)CC2)C1c1cccc([N+](=O)[O-])c1 (configuration not stated)
activity change, positive = activation (at 46.1 µM (top of the series)): inactive: -87.5% and inactive: -53.5%

Cc1cnc(C(=O)NCCc2ccc(S(=O)(=O)NC(=O)NC3CCCCC3)cc2)cn1
activity change, positive = activation (at 20.6 µM (top of the series)): inactive: -1.46%
